Tested on: human corneal endothelial cells (CECs)
Assay: Human corneal endothelial cell population expansion: endothelial cell density in vitro
Assay type: cell-based
Settings: 10 micromolar compound, X-VIVO15 medium, 10 days
Description: Cells were cultured at 37° C. in 5% CO2.
For each compound, two sets of cultures were generated. A first set of cultures was fixed in 4% PFA for 20 minutes at room temperature after cells isolated from the cornea had attached to the cell culture dish (typically 24 h after cell plating). A second set of cultures was fixed in 4% PFA for 20 minutes at room temperature 10 days after the first one.
To measure cell density in all fixed cultures, the number of nuclei stained with Sytox Orange (ThermoFisher) were counted per surface area as follows: fixed cell cultures fixed were permeabilized in a solution of 0.3% Triton X-100 (Sigma-Aldrich). Cells were then labeled in a solution of 0.5 micromolar of Sytox Orange in PBS for 5 minutes at room temperature. Nuclei were counted under a Zeiss epifluorescence microscope. The expansion factor was then determined by calculating the ratio of the expanded population of cells to population of seeded cells.

Structure (SMILES)	Endothelial Cell density in vitro [cells/mm^2]
CC(C)(O)COCC(C)(C)Nc1nc(-c2ccncc2)nc2cnccc12 [Example 12, 2-methyl-1-(2-methyl-2-{[2-(pyridin-4-yl)pyrido[3,4-d]pyrimidin-4-yl]amino}propoxy)propan-2-ol]	4226
CC(C)(COCCO)Nc1nc(-c2ccncc2)nc2cnccc12 [Example 11, 2-(2-methyl-2-{[2-(pyridin-4-yl)pyrido[3,4-d]pyrimidin-4-yl]amino}propoxy)ethan-1-ol]	1121

From US11458138B2 (Novartis AG, priority 2017, dated 2022)
